Source: ChEMBL document CHEMBL3734693, “Discovery of potent, selective, and orally bioavailable inhibitors of interleukin-1 receptor-associate kinase-4” (Bioorg Med Chem Lett, 2015)

Experiments:
Homo sapiens [1] = organism: Homo sapiens; test: Ratio of Ki for TAK1 (unknown origin) to Ki for recombinant full length IRAK-4 (unknown origin)
Homo sapiens [2] = organism: Homo sapiens; test: Ratio of Ki for IRAK-1 (unknown origin) to Ki for recombinant full length IRAK-4 (unknown origin)

Compound `O=C(Nc1nc2cc(CN3CCCCC3)ccc2n1[C@H]1CC[C@@H](CO)CC1)c1cccc(C(F)(F)F)c1` has a Ratio Ki (Homo sapiens [1]) of 310 and a Ratio Ki (Homo sapiens [2]) of 171.

`O=C(Nc1nc2cc(CN3CCCCC3)ccc2n1-c1ccc(CCO)cc1)c1cccc(C(F)(F)F)c1` was tested, and the Ratio Ki (Homo sapiens [1]) was 538 and the Ratio Ki (Homo sapiens [2]) was 9.

With `O=C(Nc1nc2ccc(CO)cc2n1[C@H]1CC[C@@H](CO)CC1)c1cccc(C(F)(F)F)c1` the Ratio Ki (Homo sapiens [1]) was 2710.

Compound `O=C(Nc1nc2cc(CN3CCCCC3)ccc2n1-c1ccccc1)c1cccc([N+](=O)[O-])c1` has a Ratio Ki (Homo sapiens [1]) of 98 and a Ratio Ki (Homo sapiens [2]) of 46.

`O=C(Nc1nc2cc(CN3CCCCC3)ccc2n1-c1ccccc1)c1cccc(C(F)(F)F)c1` showed a Ratio Ki (Homo sapiens [1]) of 892 and a Ratio Ki (Homo sapiens [2]) of 217.

`CC(C)(C)C(=O)Nc1ccc2c(c1)nc(NC(=O)c1cccc(C(F)(F)F)c1)n2[C@H]1CC[C@@H](CO)CC1` showed a Ratio Ki (Homo sapiens [1]) of 7350.
